In publication PMC5961032:

Biological target: PPP1R15A^325–636-MBP (human) (UniProt O75807)

G-actin (from UniProt P68135 1-377) (natural protein)
EC50 of the stimulation of eIF2α^P (2 μM) dephosphorylation by PP1^N (20 nM) and PPP1R15A^325–636-MBP (50 nM), G-actin 1–2000 nM, 30 min at 30 °C: 30 nM
